Source: US9302985B2, “Benzyl sulfonamide derivatives as RORc modulators” (Genentech, Inc., priority 2012, dated 2016)

Amino acid sequences for entries named in this document (tags omitted). Residues count along the entry.
UniProt P51449, 269-508, species assumed: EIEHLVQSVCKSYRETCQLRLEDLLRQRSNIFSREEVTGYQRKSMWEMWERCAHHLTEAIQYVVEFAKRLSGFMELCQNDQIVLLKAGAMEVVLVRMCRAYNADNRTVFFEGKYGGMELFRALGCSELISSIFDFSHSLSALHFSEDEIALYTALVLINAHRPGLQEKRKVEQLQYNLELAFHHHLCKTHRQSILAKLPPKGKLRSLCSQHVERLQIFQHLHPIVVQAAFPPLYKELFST

Molecular target: RORc ligand binding domain (Homo sapiens (Human), UniProt P51449)
Experiment: In vitro RORc Ligand Binding Assay
Conditions: displacement of 6 nM 25-[3H]hydroxycholesterol; 0.6 ug/mL RORc receptor; 3 h at 25° C.
Description: In vitro RORc Ligand Binding Assay
This assay was used to determine a compound's potency in inhibiting activity of RORc by determining, Kiapp, IC50, or percent inhibition values.
On day of the assay, 100 uL of 0.05% CHAPS (in deionized H2O) was added to all wells of the GFB Unifilter plate and allowed soak for 1 h. A wash buffer of 50 mM HEPES (pH 7.4), 150 mM NaCl, and 5 mM MgCl2 was prepared to wash the filter plate. To prepare an assay buffer, BSA was added to the wash buffer to reach 0.01% and DTT was added to reach 1 mM.
The 20× compound stocks were diluted in DMSO with Assay Buffer 4-fold to reach 5× the final test concentration in 25% DMSO (10 uL compound+30 uL Assay Buffer). Solutions were mixed by aspiration several times with a pipette set on 50 uL volume. For the assay, 10 uL of 5× compound stock solutions in 25% DMSO were added to the assay plate in duplicate.
For 25-hydroxycholesterol in 25% DMSO/75% Assay Buffer; 10 uL per well was used for NSB samples. Wells for Total Binding and No Receptor sample determination contained 10 uL of 25% DMSO/75% Assay Buffer per well.
Add 20 uL to all wells to reach 6 nM final concentration in the assay. […]
Using a Packard Filtermate Harvester, the filter plate were washed 4 times following transfer of the incubated samples. […] 50 uL Microscint 0 was added to all wells and read on Topcount protocol Inverted. […]

IC50: 4.3 µM
Compound: CC(C)CN(Cc1ccccc1)S(=O)(=O)c1ccc(-c2ccc(NS(C)(=O)=O)cc2)cc1 [Compound 6, 4′-Methanesulfonyl-amino-biphenyl-4-sulfonic acid benzyl-isobutyl-amide]
